From patent publication US5001160A (priority 1989, dated 1991)

By UniProt entry, the sequences of proteins in these tests, tags left out. Residues count along the entry.
UniProt H0W1Z3, 1-590: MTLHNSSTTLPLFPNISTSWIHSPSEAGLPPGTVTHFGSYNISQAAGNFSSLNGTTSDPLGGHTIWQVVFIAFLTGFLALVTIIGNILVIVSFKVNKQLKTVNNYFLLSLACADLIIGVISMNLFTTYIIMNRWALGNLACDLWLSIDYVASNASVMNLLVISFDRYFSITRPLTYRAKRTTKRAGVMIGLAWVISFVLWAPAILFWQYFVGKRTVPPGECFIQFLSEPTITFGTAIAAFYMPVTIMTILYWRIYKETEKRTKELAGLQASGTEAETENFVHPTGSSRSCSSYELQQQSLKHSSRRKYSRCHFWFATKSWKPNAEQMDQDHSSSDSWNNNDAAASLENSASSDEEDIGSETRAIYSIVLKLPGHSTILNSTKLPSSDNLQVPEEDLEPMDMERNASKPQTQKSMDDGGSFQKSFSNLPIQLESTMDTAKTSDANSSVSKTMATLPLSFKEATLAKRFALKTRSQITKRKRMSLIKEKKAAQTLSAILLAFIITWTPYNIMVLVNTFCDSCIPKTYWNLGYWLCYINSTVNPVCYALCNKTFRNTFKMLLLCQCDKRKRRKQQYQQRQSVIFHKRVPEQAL

Target: postsynaptic muscarinic cholinergic receptors (bladder detrusor muscle) (Cavia porcellus, UniProt H0W1Z3)
Conditions: antagonism of carbachol contraction, guinea pig bladder detrusor strips

O=C(CN1CCN(Cc2ccccc2)CC1)C(O)(c1ccccc1)C1CCCCC1 (stereo not shown) gave a Kb of 0.02 µM.
